Data on one compound can be found in US7247734B2 (Vernalis (Cambridge) Limited, priority 2001, dated 2007).

Sequences of proteins named here, by UniProt entry; tags and fusion partners are left off.
UniProt P02829, whole entry, looked up: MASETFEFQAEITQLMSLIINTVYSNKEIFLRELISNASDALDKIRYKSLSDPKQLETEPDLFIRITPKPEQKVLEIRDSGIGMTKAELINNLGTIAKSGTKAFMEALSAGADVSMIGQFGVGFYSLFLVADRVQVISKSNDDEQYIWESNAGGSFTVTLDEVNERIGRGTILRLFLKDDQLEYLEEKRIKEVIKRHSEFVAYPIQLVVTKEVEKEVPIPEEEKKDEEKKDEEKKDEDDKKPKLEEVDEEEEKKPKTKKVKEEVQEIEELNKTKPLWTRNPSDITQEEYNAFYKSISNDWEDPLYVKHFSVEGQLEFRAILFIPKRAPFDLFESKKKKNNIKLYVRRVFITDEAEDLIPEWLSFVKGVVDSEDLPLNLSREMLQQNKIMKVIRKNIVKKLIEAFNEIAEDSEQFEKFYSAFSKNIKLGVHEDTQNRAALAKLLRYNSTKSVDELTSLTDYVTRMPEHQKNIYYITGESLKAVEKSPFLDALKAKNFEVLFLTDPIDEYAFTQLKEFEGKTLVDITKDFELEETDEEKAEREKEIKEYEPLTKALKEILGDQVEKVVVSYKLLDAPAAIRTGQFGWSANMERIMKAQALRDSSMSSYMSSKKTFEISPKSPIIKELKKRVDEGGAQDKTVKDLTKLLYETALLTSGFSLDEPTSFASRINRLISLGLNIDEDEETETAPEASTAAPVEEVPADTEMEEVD

The term IC50 denotes the point on the concentration scale where inhibition reaches its midpoint. A higher IC50 goes with weaker potency in that assay.

For this assay, the target named is T1, yeast HSP90 (Saccharomyces cerevisiae, UniProt P02829).
T1 construct: made in house; host or cells: E. coli
Briefly: Malachite green HSP90 ATPase assay. The class given is biochemical. The conditions noted are these: activity class. From the text:
Two methods have been developed to measure the intrinsic ATPase activity of HSP90, using yeast HSP90 as a model system. The first method utilises a regenerating coupled enzyme assay. The second assay, based on the use of malachite green for the measurement of inorganic phosphate, was designed for high throughput screening (HTS) to identify novel HSP90 inhibitor drug candidates.
Colorimetric assays for the determination of phosphate, based on the formation of a phosphomolybdate complex, can be carried out in a few steps with inexpensive reagents and are well suited to the automation required for high throughput screening (see, e.g., Cogan et al., 1999). Enzymes that release inorganic phosphate are assayed using the reaction of the cationic dye, malachite green, with the a complex formed by a reaction of the inorganic phosphate with molybdate to generate a blue-green colour with an absorbance maximum at 610 nm (see, e.g., Baykov et al., 1988; Harder et al., 1994; Maehama et al., 2000). The method has been used in both high throughput (see, e.g., Rumsfeld et al., 2000) and ultra-high throughput screening formats (see, e.g., Layery et al., 2001) for a variety of non-HSP90 ATPases. However, this method is complicated by the non-enzymatic hydrolysis of ATP in the presence of acidic malachite green reagent, causing an increase in colour (see, e.g., Chan et al., 1986; Henkel et al., 1988). […]

With `CCc1cc(-c2n[nH]c(C(=O)O)c2-c2ccc3c(c2)OCO3)c(O)cc1O` [Example 89], the IC50 was less than 10 µM.
